# In PubChem BioAssay AID848 (Columbia University Molecular Screening Center, 2007):
# Only a part is listed here, and it is no random draw. Activity calls are given as the source filed them.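 The calls were made as follows: active = cell count reduction exceeding the screen mean by over 5 SD, scaled to untreated wells per plate (cut at about 78% in these data); inactive = the rest.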
# Test: cytotoxicity in TNFa-stimulated HUVEC, primary screen, cytotoxicity control for VCAM1 expression modulator project, imaging, Hoechst nuclei count (AID 848);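 also: cells counted after 24 h of TNF alpha exposure following the 1 h pretreatment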
# Details: HUVEC TNFalpha-stimulated, at 2 µM, stronger effect = higher value
row,SMILES,cell count reduction
1,CCC(CO)(C(=O)OC1CN2CCC1CC2)c1ccccc1 (stereo not given),inactive: -8%
2,CCOc1ncccc1C(=O)NCC1(N2CCOCC2)CCCCC1,inactive: 2.8%
3,c1ccc(CN2CCC(Nc3ccccc3)CC2)cc1,inactive: -18.6%
4,N/C(=N\O)c1c(N)no[n+]1[O-],inactive: -8.9%
5,CN1CCC(Nc2cccc(F)c2)CC1,inactive: 5.1%
6,O=C(NCC1(N2CCOCC2)CCCCC1)c1cc(=O)[nH]c2ccccc12,inactive: -16.5%
7,N#CC1(Nc2ccccc2)CCN(CCc2ccccc2)CC1,inactive: -16.1%
8,COc1ccc(NC2CCN(CCc3ccccc3)CC2)c(OC)c1,inactive: -10.8%
9,O=C(OC1CN2CCC1CC2)C1c2ccccc2Oc2ccccc21 (stereo not given),inactive: 0.8%
10,O=C(NCC1(N2CCOCC2)CCCCC1)c1cc2ccccc2o1,inactive: 0.5%
